For one compound, Emax results are on record in PMC4128710 (Biochemical pharmacology, 2014).

Assay [1] has as its target T1, A2BAR (Homo sapiens, UniProt P29275).
T1 sequence (P29275 1-332): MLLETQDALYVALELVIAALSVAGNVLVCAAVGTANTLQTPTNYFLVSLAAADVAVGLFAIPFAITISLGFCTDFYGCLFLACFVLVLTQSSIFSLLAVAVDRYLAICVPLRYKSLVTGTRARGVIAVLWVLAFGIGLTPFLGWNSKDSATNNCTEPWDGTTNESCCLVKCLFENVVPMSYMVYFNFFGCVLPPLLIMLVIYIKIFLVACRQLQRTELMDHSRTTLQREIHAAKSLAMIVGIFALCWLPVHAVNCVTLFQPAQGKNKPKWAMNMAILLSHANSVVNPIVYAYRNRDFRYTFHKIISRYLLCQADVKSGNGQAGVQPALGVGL
The experiment in a line: Intracellular calcium mobilization in T24 cells. As to conditions: T-24, read-out: Max effect Calcium (% of effect of NECA). A general note: Calcium assays in cells follow changes in intracellular calcium, usually with a dye or a luminescent sensor.

In assay [2] the target is T1, A2BAR. The assay is described as follows: cAMP accumulation in T24 cells endogenously expressing the A2BAR. As to conditions: T-24, read-out: Max effect cAMP (% of effect of NECA).
Assay [3] has as its target T1, A2BAR. The assay is described as follows: Intracellular calcium mobilization in HEK293 cells overexpressing the A2BAR. As to conditions: HEK293, read-out: Max effect Calcium (% of effect of NECA).

Take `Nc1nc(OCCc2c[nH]c3ccccc23)nc2c1ncn2[C@@H]1O[C@H](CO)[C@@H](O)[C@H]1O` [MRS3534, 2-(2-(indol-3-yl)ethyloxy)adenosine]: the results for the Emax on A2BAR [1], at A2BAR [2] and at A2BAR [3] were -0.5 ± 1.7%, 82 ± 5.9% and -7.7 ± 3.2%, respectively.
